# According to patent EP2913057B1, “Cancer peptide therapeutics” (Indiana University Research and Technology Corporation, priority 2008, dated 2010):
# System: U937 cells
# Conditions: combined with 25mM of R9-caPep
smiles,measurement,value
COc1cccc2c1C(=O)c1c(O)c3c(c(O)c1C2=O)C[C@@](O)(C(=O)CO)C[C@@H]3O[C@H]1C[C@H](N)[C@H](O)[C@H](C)O1 [doxorubicin],doxorubicin needed to achieve the same level of cytotoxicity (30% cell death),25 nM
